Source: paper PMC6423038, “Deferiprone: Pan-selective Histone Lysine Demethylase Inhibition Activity and Structure Activity Relationship Study” (Scientific Reports, 2019)

Chains of the proteins cited; added tags and fusions are not shown.
UniProt O15550, whole entry, looked up: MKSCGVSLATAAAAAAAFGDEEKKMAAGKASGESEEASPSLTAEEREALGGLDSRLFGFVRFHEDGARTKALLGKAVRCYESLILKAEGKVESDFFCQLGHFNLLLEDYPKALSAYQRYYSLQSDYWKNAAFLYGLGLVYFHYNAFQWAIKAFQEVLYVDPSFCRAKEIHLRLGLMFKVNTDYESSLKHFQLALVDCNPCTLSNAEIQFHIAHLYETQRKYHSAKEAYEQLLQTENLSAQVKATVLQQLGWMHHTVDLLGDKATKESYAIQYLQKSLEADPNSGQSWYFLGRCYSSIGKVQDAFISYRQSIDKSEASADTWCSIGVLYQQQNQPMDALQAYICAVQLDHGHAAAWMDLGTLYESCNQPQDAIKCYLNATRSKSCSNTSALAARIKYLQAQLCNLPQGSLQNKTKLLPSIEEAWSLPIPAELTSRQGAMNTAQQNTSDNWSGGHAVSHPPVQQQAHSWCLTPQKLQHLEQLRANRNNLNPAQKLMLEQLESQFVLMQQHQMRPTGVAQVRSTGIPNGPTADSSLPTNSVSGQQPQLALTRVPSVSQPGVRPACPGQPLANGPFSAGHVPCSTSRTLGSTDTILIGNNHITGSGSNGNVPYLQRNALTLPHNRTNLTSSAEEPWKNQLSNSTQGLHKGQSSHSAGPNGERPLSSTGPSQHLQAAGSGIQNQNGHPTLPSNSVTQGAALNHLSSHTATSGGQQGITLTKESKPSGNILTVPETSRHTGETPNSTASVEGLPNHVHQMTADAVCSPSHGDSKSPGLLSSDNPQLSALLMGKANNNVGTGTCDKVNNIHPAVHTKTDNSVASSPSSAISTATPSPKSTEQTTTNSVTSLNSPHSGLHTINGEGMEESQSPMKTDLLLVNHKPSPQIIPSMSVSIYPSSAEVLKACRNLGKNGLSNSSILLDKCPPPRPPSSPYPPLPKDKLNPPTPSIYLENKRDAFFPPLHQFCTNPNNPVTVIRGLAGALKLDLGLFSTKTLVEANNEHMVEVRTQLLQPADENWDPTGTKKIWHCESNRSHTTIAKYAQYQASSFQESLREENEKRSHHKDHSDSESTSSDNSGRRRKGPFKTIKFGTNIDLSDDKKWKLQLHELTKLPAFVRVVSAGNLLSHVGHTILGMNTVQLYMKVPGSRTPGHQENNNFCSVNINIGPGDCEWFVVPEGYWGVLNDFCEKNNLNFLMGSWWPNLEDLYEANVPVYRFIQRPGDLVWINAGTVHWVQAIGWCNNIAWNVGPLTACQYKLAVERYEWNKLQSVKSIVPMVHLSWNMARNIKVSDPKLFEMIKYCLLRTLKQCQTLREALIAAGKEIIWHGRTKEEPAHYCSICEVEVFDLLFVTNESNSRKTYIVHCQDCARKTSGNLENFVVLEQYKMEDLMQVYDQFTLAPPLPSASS

Tests used:
T47D tumors = experiment: Mouse xenograft assay, T47D (ER(+)); assay type: in vivo
KDM6A (UTX) = KDM6A (UTX) (Homo sapiens, UniProt O15550); experiment: KDM cell-free assay (AlphaScreen, BPS Bioscience); assay type: biochemical; details: at 10 μM

With `COc1cccc(-c2cn(CCCCCn3ccc(=O)c(O)c3C)nn2)c1` [2j] the tumor volume (T47D tumors; 25 mg/kg for 8 weeks, control 4426 mm^3) was 884 mm^3 and the “reduction in the growth of tumors relative to control” value (T47D tumors; athymic nude mice, 25 mg/kg body weight for 8 weeks) was “approx. 81%”.

With `Cc1c(O)c(=O)ccn1C` [DFP, Deferiprone] the “reduction in the enzyme activity (KDM6A)” value (KDM6A (UTX)) was greater than 95%.
